Experimental data as given in US20220211678A1, “USES OF (+)-A-DIHYDROTETRABENAZINE IN METHODS OF TREATING MOVEMENT DISORDER” (ADEPTIO PHARMACEUTICALS LIMITED, priority 2017, published 2022).

Protein sequences, listed by entry. Tags and fused reporters are not part of them.
UniProt Q05940, whole entry: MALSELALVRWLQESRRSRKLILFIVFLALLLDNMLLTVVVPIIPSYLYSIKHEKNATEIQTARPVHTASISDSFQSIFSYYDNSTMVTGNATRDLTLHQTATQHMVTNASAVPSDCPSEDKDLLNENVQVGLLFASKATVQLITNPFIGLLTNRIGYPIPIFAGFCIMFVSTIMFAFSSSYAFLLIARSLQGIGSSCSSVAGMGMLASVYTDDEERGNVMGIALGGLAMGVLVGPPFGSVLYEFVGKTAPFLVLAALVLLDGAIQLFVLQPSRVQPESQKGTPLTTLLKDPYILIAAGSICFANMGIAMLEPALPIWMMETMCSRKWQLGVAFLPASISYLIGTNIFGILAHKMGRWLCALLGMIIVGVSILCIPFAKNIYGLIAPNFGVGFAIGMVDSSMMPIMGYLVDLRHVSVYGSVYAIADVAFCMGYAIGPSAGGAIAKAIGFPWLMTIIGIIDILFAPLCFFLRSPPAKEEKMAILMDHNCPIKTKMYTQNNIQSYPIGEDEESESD
UniProt Q01827, whole entry: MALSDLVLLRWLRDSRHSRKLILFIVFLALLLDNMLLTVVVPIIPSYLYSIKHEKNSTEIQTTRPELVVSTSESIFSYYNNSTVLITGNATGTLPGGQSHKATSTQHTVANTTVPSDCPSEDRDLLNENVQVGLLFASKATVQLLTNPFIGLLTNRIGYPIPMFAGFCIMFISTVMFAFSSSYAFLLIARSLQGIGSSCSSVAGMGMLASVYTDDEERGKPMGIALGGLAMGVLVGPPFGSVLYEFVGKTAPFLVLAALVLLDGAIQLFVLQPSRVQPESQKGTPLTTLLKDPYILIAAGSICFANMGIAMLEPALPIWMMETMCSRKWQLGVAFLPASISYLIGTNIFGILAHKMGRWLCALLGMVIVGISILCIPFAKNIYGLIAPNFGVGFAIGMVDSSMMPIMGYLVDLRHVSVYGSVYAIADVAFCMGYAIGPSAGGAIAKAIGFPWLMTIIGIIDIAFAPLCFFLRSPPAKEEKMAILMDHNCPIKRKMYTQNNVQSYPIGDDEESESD

Assays:
[1] = target: T1, VMAT2 (Homo sapiens, UniProt Q05940); assay: % VMAT2 blocking by PET scan 60-120 minutes after oral dosing of human volunteers (Example 1A); assay type: in vivo; conditions: average plasma levels of less than 15 ng/ml during the period of PET scanning
T1 construct: from tissue; host or cells: brain of living human volunteers, measured by PET
Description: Complete blocking of VMAT2 is considered undesirable as this can lead to unwanted side effects, such as Parkinsonism. […] The levels of VMAT2 blocking can be determined by competitive binding studies using Positron Emission Tomography (PET). By co-administering a radioactive ligand with the compound of interest at various concentrations, the proportion of binding sites occupied can be determined (see for example, Matthews et al., “Positron emission tomography molecular imaging for drug development”, Br. J. Clin. Pharmacol., 73:2, 175-186). Accordingly, the invention also provides:
(+)-α-Dihydrotetrabenazine in defined amounts was administered by oral dosing (as a solution in apple juice) to five human volunteers. In four of the volunteers, blood sample were taken at 30, 60, 120 and 180 minutes after drug administration. Blood samples were not taken from the fifth volunteer. At 60 minutes after drug administration, PET scans were initiated and these were stopped at 120 minutes after drug administration.
The experiment was carried out at dosages of 7.5 mg, 15 mg and 22.5 mg.

[2] = target: VMAT2 (Rattus norvegicus, UniProt Q01827); conditions: cited from earlier work
[3] = target: VMAT receptor (Rattus norvegicus, UniProt Q01827); conditions: in vivo, infusion to equilibrium; cited from earlier work

SMILES | % VMAT2 binding [1] | VMAT2 binding activity among the eight dihydrotetrabenazine isomers [2] | brain distribution [3]
COc1cc2c(cc1OC)[C@H]1C[C@@H](O)[C@H](CC(C)C)CN1CC2 [(+)-α-dihydrotetrabenazine, (R,R,R)-3-isobutyl-9,10-dimethyloxy-1,3,4,5,7,11b-hexahydro-2H-pyrido[2,1-a]isoquinolin-2-ol] | at least 50% | most active | –
COc1cc2c(cc1O[11CH3])CCN1C[C@H](CC(C)C)[C@@H](O)C[C@@H]21 [(−)-α-[^11C]-dihydrotetrabenazine] | – | – | uniform brain distribution
